Measurements reported in US9012365B2, “Compatibility agents for herbicidal formulations comprising 2,4-(Dichlorophenoxy) acetic acid salts” (priority 2006, dated 2015).

Test: Appearance of 10 g solution of (2.5 wt % ai 2,4-D DMA + tested chemical) after adding 40% AMS
Type: physicochemical
Details: summary statement of the description

## Sodium xylene sulfonate
  Suitability for increasing the solubility of 2,4-D non-amine salt (in words): ineffective
